Test results: PubChem BioAssay AID376 (PDSP, 2006)
Only a part is listed here, and it is no random draw. Some of these compounds have results that are not shown, active ones among them. Active and inactive are the calls of the source. Rule as the data show it: active = hERG blockade below about -20% or above about 20%; inactive = in between.

Protein sequences, listed by entry. Tags and fused reporters are not part of them.
UniProt Q12809, whole entry: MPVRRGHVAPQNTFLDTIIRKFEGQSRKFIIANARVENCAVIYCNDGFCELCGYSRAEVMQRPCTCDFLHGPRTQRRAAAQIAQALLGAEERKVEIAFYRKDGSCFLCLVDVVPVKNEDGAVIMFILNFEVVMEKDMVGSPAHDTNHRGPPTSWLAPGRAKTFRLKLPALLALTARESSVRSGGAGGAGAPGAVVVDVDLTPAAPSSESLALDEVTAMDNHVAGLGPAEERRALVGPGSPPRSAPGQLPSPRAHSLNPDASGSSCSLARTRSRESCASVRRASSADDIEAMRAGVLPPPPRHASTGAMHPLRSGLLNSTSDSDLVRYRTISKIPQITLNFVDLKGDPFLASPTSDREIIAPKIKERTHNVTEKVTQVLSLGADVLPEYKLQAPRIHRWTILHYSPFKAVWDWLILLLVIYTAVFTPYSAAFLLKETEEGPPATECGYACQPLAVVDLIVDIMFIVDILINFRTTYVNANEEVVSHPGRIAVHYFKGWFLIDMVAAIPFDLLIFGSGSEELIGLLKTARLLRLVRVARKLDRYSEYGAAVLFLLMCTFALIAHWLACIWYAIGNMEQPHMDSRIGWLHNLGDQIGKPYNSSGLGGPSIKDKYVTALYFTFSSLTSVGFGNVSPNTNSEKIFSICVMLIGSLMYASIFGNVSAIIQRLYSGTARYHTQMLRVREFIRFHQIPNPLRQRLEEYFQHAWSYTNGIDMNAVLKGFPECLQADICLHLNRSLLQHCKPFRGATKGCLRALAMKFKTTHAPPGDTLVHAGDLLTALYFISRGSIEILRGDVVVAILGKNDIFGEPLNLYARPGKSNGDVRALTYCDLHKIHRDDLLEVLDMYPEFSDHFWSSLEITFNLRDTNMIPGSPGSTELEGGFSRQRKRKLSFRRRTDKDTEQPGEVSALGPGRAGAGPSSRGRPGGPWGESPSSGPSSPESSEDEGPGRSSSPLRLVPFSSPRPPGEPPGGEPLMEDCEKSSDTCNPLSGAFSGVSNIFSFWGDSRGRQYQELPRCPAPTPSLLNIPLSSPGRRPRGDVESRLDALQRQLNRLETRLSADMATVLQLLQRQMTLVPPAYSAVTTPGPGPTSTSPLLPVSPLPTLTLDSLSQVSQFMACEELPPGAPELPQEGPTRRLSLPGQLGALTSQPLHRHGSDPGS

These molecules were tested against Voltage-gated inwardly rectifying potassium channel KCNH2 (Homo sapiens) (UniProt Q12809) (assay: KCNH2 potassium channel function modulators, cell-based (AID 376;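 also: 0% = buffer alone and 100% = reference blocker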)). Conditions: hERG-expressing cells, channel activity single-concentration screen; concentration not given here.
For `CN1CCC(OC(=O)C(O)(c2ccccc2)C2CCCC2)C1` (stereo not drawn), the hERG blockade was inactive: -6.94%.
`CN1CCCC(OC(=O)C(O)(c2ccccc2)C2CCCC2)C1` (stereo not drawn) was tested, and the hERG blockade was active: 20.9%.
For `C=C(C)C#CC(O)(C(=O)OC1CCN(C)CC1)c1ccccc1` (stereo not drawn), the hERG blockade was inactive: -3.97%.
